# Test results from patent US12685983B2, “Benefit agent delivery system” (ITC Limited, priority 2020, dated 2026).
# Test: UV-vis spectroscopy of enabler interaction with PVP (absorbance at 236 nm)
# Type: physicochemical
smiles,measurement,setting,value
OCCN(CCO)CCO,Absorbance,enabler 6.7 ppm with PVP in 95% v/v ethanol,−0.001
same,Absorbance,enabler 10 ppm with PVP in 95% v/v ethanol,0.290
